PubChem BioAssay (EPA / NIEHS)
Only a part is listed here, and it is no random draw. The source made the active and inactive calls. The calls were made as follows: active = hit-call score of the fitted dose curve at least 0.9, where 1 is the maximum; inactive = score below 0.9.

Protein sequences, listed by entry. Tags and fused reporters are not part of them.
UniProt P01375, whole entry: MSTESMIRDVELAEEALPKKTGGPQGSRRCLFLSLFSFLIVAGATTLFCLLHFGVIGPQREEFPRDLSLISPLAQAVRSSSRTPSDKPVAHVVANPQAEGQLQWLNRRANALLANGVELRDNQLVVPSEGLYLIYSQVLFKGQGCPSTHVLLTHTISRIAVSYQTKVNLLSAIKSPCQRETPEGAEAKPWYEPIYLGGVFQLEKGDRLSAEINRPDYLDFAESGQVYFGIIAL

How the values were obtained:
[1] = BSK_BT_PBMCCytotoxicity: PBMC Cytotoxicity Assessment in the BioMAP Diversity Plus: BT Assay (AID 2284225); settings: primary human B cells with PBMC;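 also: PBMC viability measured by Alamar Blue dye reduction fluorescence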
Summary of the method: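 Primary human co-culture of B cells and PBMC, pre-dosed 1 h then activated with SEB and TSST-1. Cytotoxicity is taken from Alamar Blue dye reduction, added for 6 h at the end of a 90 h incubation.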

[2] = read-out: Secreted IgG (sIgG), gene 3500; experiment: BSK_BT_sIgG: BioMAP Diversity Plus: BT Assay for Secreted IgG (sIgG) Biomarker Activity (AID 2284226); settings: primary human B cells with PBMC
Summary of the method: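 Human B cell/PBMC co-culture; compound exposure 24 h; sIgG by ELISA; gain-of-signal fit vs DMSO baseline.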

[3] = BSK_BT_Bcell_Proliferation: Viability Assessment in the BioMAP Diversity Plus: BT Assay for B cell Proliferation (AID 2284227); settings: primary human B cells with PBMC
Summary of the method: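 Human B cells co-cultured with PBMC were dosed with test chemicals and relative cell number was quantified by SRB staining at 72 h. Cells were fixed in 10% TCA, stained with 0.1% SRB and read at 560 nm. Activity was fitted in the positive direction against DMSO.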

[4] = read-out: Interleukin 6 (IL6), IL6 (gene 3569); experiment: BSK_BT_xIL6: BioMAP Diversity Plus: BT Assay for Interleukin 6 (IL6) Biomarker Activity (AID 2284228); settings: primary human B cells with PBMC
Summary of the method: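 B cells and peripheral blood mononuclear cells (human primary co-culture) were dosed with chemical, and after 24 h IL-6 released into the medium was measured by Luminex xMAP. Responses were analysed as gain of signal over DMSO control.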

[5] = read-out: Interleukin 17A (IL17A), IL17A (gene 3605); experiment: BSK_BT_xIL17A: BioMAP Diversity Plus: BT Assay for Interleukin 17A (IL17A) Biomarker Activity (AID 2284229); settings: primary human B cells with PBMC
Summary of the method: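 Secreted IL-17A was the measured endpoint, read by Luminex xMAP multiplex in supernatants of a human B cell/PBMC co-culture harvested 24 h after chemical dosing. Signal increase relative to DMSO defined activity.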

[6] = read-out: Tumor necrosis factor (Homo sapiens) (UniProt P01375); experiment: BSK_BT_xTNFa: BioMAP Diversity Plus: BT Assay for Tumor necrosis factor alpha (TNF-alpha) Biomarker Activity (AID 2284230); settings: primary human B cells with PBMC
Summary of the method: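 B cells with PBMC in co-culture, dosed and sampled at 24 h; secreted TNF-alpha measured by Luminex xMAP bead assay. Activity fitted in the gain direction against DMSO as negative control and baseline.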

[7] = read-out: Vascular cell adhesion molecule 1 (VCAM1), VCAM1 (gene 7412); experiment: BSK_MyoF_VCAM1: BioMAP Diversity Plus: MyoF Assay for Vascular cell adhesion molecule 1 (VCAM1) Biomarker Activity (AID 2284231); settings: primary human lung fibroblasts
Summary of the method: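 ELISA read-out of VCAM-1 on human lung fibroblasts 24 h after chemical treatment, with positive-direction curve fitting relative to DMSO controls. Parallel cultures were stained with sulforhodamine B for total protein to flag overt cytotoxicity.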

[8] = read-out: Collagen I, COL1A1 (gene 1277); experiment: BSK_MyoF_CollagenI: BioMAP Diversity Plus: MyoF Assay for Collagen I Biomarker Activity (AID 2284238); settings: primary human lung fibroblasts
Summary of the method: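 Lung fibroblasts (human primary) dosed, 24 h; Collagen I by ELISA; positive-direction fit vs DMSO control. Parallel SRB total-protein staining (0.1% SRB, 10% TCA fixation, 560 nm) flags overt cytotoxicity.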

[9] = read-out: Collagen III, COL3A1 (gene 1281); experiment: BSK_MyoF_CollagenIII: BioMAP Diversity Plus: MyoF Assay for Collagen III Biomarker Activity (AID 2284239); settings: primary human lung fibroblasts
Summary of the method: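 ELISA read-out of collagen III from human lung fibroblasts after 24 h of chemical treatment. The DMSO control served as negative control and baseline, with values fitted in the positive direction.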

[10] = read-out: Interleukin 17F (IL17F), IL17F (gene 112744); experiment: BSK_BT_xIL17F: BioMAP Diversity Plus: BT Assay for Interleukin 17F (IL17F) Biomarker Activity (AID 2284243); settings: primary human B cells with PBMC
Summary of the method: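 Compound was added to co-cultures of human B cells and PBMC. After 24 hours, IL-17F released into the medium was measured with LumineX xMAP technology. Responses were then fitted upward relative to DMSO.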

Measured: AC50

Cc1ccc([N+](=O)[O-])c([N+](=O)[O-])c1
inactive: [1] | [8] | [9]
active: [2] 20 µM | [3] 20 µM | [4] 9.75 µM | [5] 8.79 µM | [6] 30.3 µM | [7] 29.3 µM | [10] 20 µM
